# Experiments:
# Chains of the proteins cited; added tags and fusions are not shown. Lines headed by an entry give the natural chain unless they say otherwise; changes in a name come on top.
# UniProt P08631: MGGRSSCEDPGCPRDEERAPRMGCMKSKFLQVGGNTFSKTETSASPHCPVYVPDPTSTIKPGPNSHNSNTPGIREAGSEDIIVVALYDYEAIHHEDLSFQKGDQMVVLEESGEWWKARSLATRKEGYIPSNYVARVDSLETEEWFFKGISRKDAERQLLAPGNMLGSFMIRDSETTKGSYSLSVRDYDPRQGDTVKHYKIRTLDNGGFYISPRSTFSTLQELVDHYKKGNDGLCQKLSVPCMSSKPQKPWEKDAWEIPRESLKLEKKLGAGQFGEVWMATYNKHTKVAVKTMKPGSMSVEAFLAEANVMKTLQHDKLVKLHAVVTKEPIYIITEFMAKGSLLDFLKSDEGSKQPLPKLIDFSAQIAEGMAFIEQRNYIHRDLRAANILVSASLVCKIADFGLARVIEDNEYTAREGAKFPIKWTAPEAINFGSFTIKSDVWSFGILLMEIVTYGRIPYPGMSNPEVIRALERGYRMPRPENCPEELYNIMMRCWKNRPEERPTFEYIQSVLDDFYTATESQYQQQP
# UniProt Q9NQU5: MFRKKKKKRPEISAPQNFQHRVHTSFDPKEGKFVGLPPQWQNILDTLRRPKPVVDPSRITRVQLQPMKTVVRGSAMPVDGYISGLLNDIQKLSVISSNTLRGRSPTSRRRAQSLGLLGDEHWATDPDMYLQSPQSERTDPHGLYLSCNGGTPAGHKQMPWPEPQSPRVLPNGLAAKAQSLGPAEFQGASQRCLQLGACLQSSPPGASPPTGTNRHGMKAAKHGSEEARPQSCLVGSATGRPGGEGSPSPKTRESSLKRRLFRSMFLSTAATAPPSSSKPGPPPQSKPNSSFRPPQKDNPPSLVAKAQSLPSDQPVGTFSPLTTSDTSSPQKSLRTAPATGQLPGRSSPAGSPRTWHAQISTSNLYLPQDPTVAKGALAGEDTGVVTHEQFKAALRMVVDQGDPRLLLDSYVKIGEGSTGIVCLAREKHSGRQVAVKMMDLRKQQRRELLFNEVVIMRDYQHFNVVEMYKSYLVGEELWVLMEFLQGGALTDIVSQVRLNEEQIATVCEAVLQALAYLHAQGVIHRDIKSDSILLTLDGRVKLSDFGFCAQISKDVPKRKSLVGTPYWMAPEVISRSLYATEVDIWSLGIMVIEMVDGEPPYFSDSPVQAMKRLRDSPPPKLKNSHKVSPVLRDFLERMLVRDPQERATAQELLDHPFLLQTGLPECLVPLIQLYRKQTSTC
# UniProt Q9H422: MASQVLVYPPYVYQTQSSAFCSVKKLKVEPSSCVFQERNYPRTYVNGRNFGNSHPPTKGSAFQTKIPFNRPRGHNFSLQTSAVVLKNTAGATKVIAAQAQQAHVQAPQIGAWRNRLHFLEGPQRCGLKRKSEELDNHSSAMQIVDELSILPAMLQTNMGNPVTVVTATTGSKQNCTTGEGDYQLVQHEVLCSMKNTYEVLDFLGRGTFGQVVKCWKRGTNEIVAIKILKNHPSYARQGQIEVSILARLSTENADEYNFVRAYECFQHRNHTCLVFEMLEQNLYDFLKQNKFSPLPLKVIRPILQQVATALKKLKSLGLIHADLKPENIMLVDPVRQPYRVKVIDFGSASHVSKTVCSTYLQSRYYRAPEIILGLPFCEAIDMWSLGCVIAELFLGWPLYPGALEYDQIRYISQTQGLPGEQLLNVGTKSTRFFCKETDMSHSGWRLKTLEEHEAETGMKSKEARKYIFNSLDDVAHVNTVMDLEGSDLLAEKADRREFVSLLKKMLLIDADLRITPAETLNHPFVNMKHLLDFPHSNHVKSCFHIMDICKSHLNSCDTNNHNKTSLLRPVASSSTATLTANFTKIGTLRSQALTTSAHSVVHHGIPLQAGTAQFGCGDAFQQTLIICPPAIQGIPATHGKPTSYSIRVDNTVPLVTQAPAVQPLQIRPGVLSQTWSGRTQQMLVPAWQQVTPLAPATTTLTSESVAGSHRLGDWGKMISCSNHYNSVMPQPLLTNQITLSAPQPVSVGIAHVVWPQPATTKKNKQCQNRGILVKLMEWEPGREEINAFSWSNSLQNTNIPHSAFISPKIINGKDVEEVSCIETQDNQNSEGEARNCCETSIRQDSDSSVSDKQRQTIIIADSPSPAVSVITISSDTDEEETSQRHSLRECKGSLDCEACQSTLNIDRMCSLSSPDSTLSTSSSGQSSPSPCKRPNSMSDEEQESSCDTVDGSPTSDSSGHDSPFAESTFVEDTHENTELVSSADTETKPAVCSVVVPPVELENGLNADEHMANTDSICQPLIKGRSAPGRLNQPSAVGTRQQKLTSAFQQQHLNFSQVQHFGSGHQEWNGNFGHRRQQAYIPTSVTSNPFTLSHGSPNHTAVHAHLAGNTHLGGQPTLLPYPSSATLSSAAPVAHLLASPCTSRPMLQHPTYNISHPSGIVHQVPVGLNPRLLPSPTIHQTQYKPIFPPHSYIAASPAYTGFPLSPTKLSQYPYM
# UniProt Q00526: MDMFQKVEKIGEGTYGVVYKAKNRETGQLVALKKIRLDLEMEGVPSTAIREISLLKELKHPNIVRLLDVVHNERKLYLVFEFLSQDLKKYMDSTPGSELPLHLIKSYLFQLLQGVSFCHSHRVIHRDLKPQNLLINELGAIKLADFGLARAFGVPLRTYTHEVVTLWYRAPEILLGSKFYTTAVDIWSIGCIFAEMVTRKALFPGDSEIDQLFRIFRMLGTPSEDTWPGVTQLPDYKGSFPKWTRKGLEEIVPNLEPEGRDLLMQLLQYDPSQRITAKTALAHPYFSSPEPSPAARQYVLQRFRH
# UniProt Q9H2X6: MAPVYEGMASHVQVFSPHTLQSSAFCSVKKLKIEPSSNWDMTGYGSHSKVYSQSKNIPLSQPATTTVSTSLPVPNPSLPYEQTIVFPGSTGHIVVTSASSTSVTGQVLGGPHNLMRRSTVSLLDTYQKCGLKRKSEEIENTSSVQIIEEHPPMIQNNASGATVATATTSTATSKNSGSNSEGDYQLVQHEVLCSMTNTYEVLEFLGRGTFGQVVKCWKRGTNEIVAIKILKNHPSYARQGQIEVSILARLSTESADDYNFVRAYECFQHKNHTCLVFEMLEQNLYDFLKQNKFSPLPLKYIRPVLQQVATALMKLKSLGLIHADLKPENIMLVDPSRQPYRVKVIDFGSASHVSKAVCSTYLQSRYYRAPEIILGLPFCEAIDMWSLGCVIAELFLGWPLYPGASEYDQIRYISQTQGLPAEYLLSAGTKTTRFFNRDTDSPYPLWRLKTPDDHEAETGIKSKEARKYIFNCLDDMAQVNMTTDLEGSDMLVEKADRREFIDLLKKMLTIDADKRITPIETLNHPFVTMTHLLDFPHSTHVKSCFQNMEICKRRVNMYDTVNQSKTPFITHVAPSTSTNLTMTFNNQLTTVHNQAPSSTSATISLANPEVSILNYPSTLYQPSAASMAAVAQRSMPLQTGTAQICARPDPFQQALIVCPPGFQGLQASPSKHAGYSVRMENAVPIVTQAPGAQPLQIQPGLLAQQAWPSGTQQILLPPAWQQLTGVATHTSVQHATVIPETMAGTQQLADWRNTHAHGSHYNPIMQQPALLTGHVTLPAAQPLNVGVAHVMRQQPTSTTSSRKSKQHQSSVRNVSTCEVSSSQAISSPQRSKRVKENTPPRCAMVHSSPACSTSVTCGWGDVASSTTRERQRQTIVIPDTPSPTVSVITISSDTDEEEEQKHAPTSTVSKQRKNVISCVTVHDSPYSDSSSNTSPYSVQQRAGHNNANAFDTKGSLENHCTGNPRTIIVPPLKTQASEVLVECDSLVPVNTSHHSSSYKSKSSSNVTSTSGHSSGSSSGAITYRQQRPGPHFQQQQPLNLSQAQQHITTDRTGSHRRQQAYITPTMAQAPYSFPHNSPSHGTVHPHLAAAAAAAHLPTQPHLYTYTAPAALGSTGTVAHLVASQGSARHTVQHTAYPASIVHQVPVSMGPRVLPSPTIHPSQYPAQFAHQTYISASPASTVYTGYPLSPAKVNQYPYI
# UniProt Q15418, whole entry: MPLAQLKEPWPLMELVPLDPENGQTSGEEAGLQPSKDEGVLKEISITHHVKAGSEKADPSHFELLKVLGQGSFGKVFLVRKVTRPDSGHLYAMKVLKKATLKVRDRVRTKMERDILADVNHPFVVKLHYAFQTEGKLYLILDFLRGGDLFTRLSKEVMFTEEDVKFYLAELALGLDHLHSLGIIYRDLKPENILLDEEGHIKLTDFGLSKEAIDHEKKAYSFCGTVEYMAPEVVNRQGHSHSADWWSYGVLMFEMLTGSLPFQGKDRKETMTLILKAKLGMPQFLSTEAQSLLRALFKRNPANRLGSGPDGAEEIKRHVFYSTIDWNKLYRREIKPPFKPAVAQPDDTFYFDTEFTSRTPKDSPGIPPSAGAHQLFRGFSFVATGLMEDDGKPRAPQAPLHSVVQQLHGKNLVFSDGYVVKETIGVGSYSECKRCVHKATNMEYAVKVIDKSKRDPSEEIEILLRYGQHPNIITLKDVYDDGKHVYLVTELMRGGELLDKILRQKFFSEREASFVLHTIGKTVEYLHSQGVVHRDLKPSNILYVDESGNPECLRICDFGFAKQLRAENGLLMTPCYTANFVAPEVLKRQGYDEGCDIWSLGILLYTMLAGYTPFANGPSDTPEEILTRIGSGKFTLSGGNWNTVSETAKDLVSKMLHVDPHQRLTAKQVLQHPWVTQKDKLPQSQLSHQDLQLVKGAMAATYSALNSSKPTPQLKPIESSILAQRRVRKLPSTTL
# UniProt Q5VT25: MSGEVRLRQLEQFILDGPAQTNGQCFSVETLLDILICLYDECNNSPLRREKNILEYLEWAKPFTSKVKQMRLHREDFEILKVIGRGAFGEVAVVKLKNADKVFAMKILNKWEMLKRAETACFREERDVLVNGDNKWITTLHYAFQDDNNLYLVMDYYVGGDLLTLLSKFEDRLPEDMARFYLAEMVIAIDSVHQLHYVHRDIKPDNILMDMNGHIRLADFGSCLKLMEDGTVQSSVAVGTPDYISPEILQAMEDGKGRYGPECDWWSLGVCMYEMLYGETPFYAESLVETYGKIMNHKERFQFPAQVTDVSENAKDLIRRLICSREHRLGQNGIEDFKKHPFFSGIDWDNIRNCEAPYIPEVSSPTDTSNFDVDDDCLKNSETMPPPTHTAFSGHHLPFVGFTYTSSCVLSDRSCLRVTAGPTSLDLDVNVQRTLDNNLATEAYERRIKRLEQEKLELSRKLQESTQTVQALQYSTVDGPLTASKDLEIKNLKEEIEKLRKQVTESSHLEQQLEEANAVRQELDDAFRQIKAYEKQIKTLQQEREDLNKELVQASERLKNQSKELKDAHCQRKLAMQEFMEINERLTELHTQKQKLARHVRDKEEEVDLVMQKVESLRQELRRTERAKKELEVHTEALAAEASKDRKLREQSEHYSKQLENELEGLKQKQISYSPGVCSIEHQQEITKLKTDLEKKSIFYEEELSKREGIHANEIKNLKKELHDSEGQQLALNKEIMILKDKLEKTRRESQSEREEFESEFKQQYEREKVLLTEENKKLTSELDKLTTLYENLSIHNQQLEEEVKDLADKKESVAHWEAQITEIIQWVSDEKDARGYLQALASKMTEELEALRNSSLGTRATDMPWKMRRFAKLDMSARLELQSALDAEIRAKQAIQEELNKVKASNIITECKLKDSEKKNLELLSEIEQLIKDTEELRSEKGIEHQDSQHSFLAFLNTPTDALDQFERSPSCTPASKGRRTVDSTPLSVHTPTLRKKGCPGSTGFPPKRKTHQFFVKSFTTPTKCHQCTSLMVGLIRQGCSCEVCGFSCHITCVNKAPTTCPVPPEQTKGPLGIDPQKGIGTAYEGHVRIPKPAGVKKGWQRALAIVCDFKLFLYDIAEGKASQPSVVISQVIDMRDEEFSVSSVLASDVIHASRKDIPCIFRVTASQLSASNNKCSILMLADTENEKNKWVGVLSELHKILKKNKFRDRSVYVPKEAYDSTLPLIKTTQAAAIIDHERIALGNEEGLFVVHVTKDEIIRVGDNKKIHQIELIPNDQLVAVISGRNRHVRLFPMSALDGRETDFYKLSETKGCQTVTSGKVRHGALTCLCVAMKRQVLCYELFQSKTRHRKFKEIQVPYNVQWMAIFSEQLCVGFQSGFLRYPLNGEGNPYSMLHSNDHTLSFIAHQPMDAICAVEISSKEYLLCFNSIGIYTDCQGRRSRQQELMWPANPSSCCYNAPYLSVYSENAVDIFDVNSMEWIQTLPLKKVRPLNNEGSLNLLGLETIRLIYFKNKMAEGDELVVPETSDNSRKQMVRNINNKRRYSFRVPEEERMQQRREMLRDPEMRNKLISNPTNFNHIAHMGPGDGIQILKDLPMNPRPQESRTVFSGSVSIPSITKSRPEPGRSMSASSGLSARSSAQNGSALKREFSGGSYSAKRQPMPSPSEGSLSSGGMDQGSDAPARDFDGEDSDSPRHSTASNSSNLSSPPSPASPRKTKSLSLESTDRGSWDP
# Assay type in all cases: biochemical
# 266 human kinases [1] = molecular target: 266 human kinases (Homo sapiens, UniProt P08631); conditions: Hck(h); 100 μM
# Description: (§1) Specifically, in these assays, a positively charged substrate is phosphorylated with a radiolabeled phosphate group from an ATP if the kinase is not inhibited by an inhibitor peptide. The positively charged substrate then is attracted to a negatively charged filter membrane, quantified with a scintillation counter, and compared to a 100% activity control.
# 266 human kinases [2] = molecular target: 266 human kinases (Homo sapiens, UniProt P45984); conditions: JNK2α2(h); 100 μM
# Description: as §1
# 266 human kinases [3] = molecular target: 266 human kinases (Homo sapiens, UniProt Q9NQU5); conditions: PAK6(h); 100 μM
# Description: as §1
# 266 human kinases [4] = molecular target: 266 human kinases (Homo sapiens, UniProt Q9H422); conditions: HIPK3(h); 100 μM
# Description: as §1
# 266 human kinases [5] = molecular target: 266 human kinases (Homo sapiens, UniProt P00519); conditions: Abl(h); 100 μM
# Description: as §1
# 266 human kinases [6] = molecular target: T1, 266 human kinases (Homo sapiens, UniProt Q13188); conditions: MST2(h); 100 μM
# T1 sequence (Q13188 1-491): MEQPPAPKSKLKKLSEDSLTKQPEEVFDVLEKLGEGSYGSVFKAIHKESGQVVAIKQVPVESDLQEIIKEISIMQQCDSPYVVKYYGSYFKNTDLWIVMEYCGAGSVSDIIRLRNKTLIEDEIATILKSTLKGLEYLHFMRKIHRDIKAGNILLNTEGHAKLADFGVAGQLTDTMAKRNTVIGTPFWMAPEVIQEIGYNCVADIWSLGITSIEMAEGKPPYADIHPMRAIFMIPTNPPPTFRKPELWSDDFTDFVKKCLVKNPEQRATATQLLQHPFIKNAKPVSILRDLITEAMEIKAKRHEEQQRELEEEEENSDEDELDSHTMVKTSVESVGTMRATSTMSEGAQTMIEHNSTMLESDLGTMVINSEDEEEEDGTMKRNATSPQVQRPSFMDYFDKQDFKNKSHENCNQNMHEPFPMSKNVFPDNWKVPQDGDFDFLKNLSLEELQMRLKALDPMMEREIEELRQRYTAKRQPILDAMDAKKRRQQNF
# Description: as §1
# 266 human kinases [7] = molecular target: T2, 266 human kinases (Homo sapiens, UniProt P51817); conditions: PrKX(h); 100 μM
# T2 sequence (P51817 1-358): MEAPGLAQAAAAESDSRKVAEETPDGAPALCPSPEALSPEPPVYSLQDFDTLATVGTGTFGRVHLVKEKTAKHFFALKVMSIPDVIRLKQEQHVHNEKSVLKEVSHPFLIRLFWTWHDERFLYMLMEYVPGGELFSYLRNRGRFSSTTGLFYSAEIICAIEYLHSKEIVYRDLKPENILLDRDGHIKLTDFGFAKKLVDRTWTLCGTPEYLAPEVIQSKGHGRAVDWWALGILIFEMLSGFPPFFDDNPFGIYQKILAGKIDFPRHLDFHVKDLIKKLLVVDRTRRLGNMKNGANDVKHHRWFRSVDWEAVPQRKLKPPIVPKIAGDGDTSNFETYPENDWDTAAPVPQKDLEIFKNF
# Description: as §1
# 266 human kinases [8] = molecular target: 266 human kinases (Homo sapiens, UniProt P21802, N549H); conditions: FGFR2(N549H)(h); 100 μM
# Description: as §1
# 266 human kinases [9] = molecular target: 266 human kinases (Homo sapiens, UniProt P28482); conditions: MAPK2(h); 100 μM
# Description: as §1
# 266 human kinases [10] = molecular target: T3, 266 human kinases (Homo sapiens, UniProt O15111); conditions: IKKα(h); 100 μM
# T3 sequence (O15111 1-745): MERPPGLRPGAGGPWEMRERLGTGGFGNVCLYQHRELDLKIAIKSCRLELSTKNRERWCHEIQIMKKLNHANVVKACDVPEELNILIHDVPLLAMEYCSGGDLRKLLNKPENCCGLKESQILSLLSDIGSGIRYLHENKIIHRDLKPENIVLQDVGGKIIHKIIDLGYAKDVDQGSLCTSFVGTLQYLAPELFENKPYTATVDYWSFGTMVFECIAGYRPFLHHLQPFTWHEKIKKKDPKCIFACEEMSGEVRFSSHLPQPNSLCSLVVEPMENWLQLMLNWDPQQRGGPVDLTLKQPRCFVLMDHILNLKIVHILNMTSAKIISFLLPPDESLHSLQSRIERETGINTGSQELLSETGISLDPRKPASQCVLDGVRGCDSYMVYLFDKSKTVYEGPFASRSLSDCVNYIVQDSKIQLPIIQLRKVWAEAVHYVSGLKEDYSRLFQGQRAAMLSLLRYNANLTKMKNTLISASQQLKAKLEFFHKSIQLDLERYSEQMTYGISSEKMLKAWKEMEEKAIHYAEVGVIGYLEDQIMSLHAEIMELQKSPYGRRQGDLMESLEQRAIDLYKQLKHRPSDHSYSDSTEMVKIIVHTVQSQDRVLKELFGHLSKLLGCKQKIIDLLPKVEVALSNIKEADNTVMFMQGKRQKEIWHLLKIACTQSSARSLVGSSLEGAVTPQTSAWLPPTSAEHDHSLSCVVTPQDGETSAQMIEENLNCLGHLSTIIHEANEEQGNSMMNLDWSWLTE
# Description: as §1
# 266 human kinases [11] = molecular target: 266 human kinases (Homo sapiens, UniProt P04049); conditions: c-RAF(h); 100 μM
# Description: as §1
# 266 human kinases [12] = molecular target: 266 human kinases (Homo sapiens, UniProt Q00526); conditions: CDK3/cyclinE(h); 100 μM
# Description: as §1
# 266 human kinases [13] = molecular target: 266 human kinases (Homo sapiens, UniProt Q9H2X6); conditions: HIPK2(h); 100 μM
# Description: as §1
# 266 human kinases [14] = molecular target: 266 human kinases (Homo sapiens, UniProt Q15418); conditions: Rsk1(h); 100 μM
# Description: as §1
# 266 human kinases [15] = molecular target: 266 human kinases (Homo sapiens, UniProt Q5VT25); conditions: MRCKα(h); 100 μM
# Description: as §1
sequence,measurement,setting,value
YARAAARQARAKALNRQLGVA (mammal) [MMI-0200],% activity,266 human kinases [1],107%
same,% activity,266 human kinases [2],109%
same,% activity,266 human kinases [3],105%
same,% activity,266 human kinases [4],105%
same,% activity,266 human kinases [5],107%
same,% activity,266 human kinases [6],104%
same,% activity,266 human kinases [7],112%
same,% activity,266 human kinases [8],104%
same,% activity,266 human kinases [9],105%
same,% activity,266 human kinases [10],104%
same,% activity,266 human kinases [11],115%
same,% activity,266 human kinases [12],104%
same,% activity,266 human kinases [13],102%
same,% activity,266 human kinases [14],102%
same,% activity,266 human kinases [15],103%

# Reference: US20140072613A1, “Compositions and Methods for Treating Cutaneous Scarring” (priority 2012, published 2014)
